Measured values: PubChem BioAssay AID504429 (National Center for Advancing Translational Sciences (NCATS), 2011)
The list shows a part of the results, in another mix than the full data. Calls of active or inactive are those of the source.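 The calls were made as follows: active = compounds whose dose response shows an inhibitor phenotype against the kinase Dyrk1b; inactive = compounds showing no inhibitor phenotype.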

The chains behind the UniProt entries cited, without tags or fusion partners.
UniProt Q9Y463, whole entry, looked up: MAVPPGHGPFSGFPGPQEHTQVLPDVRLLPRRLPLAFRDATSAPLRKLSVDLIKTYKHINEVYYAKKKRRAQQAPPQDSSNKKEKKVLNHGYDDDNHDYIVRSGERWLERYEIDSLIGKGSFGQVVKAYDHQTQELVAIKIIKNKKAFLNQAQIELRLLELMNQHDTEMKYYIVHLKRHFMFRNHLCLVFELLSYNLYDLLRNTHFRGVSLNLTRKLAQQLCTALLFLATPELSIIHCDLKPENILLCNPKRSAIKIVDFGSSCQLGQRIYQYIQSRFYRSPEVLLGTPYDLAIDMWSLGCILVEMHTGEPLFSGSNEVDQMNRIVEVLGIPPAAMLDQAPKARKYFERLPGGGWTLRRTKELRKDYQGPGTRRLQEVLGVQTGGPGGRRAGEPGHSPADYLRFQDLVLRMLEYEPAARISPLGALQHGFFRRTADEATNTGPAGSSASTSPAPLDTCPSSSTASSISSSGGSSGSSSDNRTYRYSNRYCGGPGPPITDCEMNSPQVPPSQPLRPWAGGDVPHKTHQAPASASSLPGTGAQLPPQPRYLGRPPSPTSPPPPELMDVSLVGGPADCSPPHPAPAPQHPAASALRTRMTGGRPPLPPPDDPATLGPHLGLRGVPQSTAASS

Molecular target: Dual specificity tyrosine-phosphorylation-regulated kinase 1B (Homo sapiens) (UniProt Q9Y463)
Test: Kinase Inhibition Study on Inhibitors of Dyrk1b (Reaction Biology data)
Conditions: Recombinant Dyrk1b kinase assay, 10 uM ATP
Excerpt: NIH Molecular Libraries Probe Production Centers Network [MLPCN] NIH Chemical Genomics Center [NCGC] MLPCN Grant: 1R03MH084827-01 Assay Submitter (PI): Tom Misteli NCGC Assay Overview: Alternative splicing of pre-mRNAs plays a major role in the regulation of eukaryotic gene expression. Alternative splicing is now thought to be one of the primary reasons for the complexity of higher organisms leading to an average of three protein isoforms per gene. Aberrant splicing can lead to a number of diseases and is known to play a role in rare genetic diseases such as progeria syndrome. Hutchinson-Gilford Progeria Syndrome (HGPS) is a pediatric premature aging disease caused by a spontaneous mutation in the lamin A/C (LMNA) gene due to a single point mutation in the lamin A gene effecting 1 in 4 million people. To identify both specific splicing modulators of the lamin A gene as well as general splicing modulators, a cell-based HTS assay was developed using a minigene reporter system (AIDs, 1459 & 1487). […] The Clk family is part of the CMGC group of protein kinases which includes Dyrks and are essential kinases found in all eukaryotes. […] This AID is to summarize the activity of these analogs in Dyrk1b.
All kinase reactions were performed using 10 uM ATP in the assay. 100% activity was taken from kinase reactions with DMSO alone (the vehicle used for compound stock solutions).

Structure (SMILES)	Potency
c1coc(CCNc2ncnc3ccc(-c4ccc5c(c4)OCO5)cc23)c1	active: 130 nM
c1csc(CNc2ncnc3ccc(-c4ccc5c(c4)OCO5)cc23)c1	active: 451 nM
